Several values for one entry are separate records, joined by “and”; a condition that tells them apart may be missing. Identical values can stand only once.
Key:
SARS-CoV-2 M^pro [1] = biological target: T1, SARS-CoV-2 M^pro (Severe acute respiratory syndrome coronavirus 2, UniProt P0DTD1); test: M^pro molecular weight analysis with HPLC/MS (covalent binding)
SARS-CoV-2 M^pro [2] = biological target: T1, SARS-CoV-2 M^pro

O=C(Oc1cncc(Cl)c1)c1cccc2[nH]ccc12 [GRL-0920]
Average mass of the major M^pro species with compound (SARS-CoV-2 M^pro [1]): 33,997.27
Tm of M^pro (SARS-CoV-2 M^pro [2]): 51.04 °C and 49.13 °C and 46.98 °C
